Results on 2 molecules are retold here after US8394408B2, “Gastric retentive extended-release dosage forms comprising combinations of a non-opioid analgesic and an opioid analgesic” (Depomed, Inc., priority 2008, dated 2013).

The structures appear in SMILES notation.

A short description of the series: Oxycodone degradation (DHOXY/OXY), effect of antioxidants, 40° C., 75% RH open dish 8 days. It counts as physicochemical. The note with it: ER single layer tablets, HPC binder.

For the molecule `O=S([O-])S(=O)(=O)[O-].[Na+].[Na+]`, the “Effect of antioxidant on degradation of oxycodone” value is recorded as “reduce the degradation of oxycodone”.
For `O=C(O)CC(O)(CC(=O)O)C(=O)O`, the “Effect of antioxidant on degradation of oxycodone” value is given as “reduce the degradation of oxycodone”.
